Test results as given in PubChem BioAssay AID1985 (Southern Research Specialized Biocontainment Screening …, 2009).
Only a part is listed here, and it is no random draw. Potency and affinity values are given separately. Some tests of the compounds listed are not included; inactive here does not mean inactive elsewhere. Calls of active or inactive are those of the source. No rule for the calls is given here.

Assay: PhoP regulon inhibitor project modified counter assay, GFP fluorescence readout, dose response (AID 1985)
Details: S. Typhi, 4 h; at 150 µM (top of the series)

Structure (SMILES) | inhibition
COc1ccc(C(=O)NCC2(N(C)C)CCCCC2)cc1 | inactive: -8.98%
